# The whole screen tested about 360,000 compounds, of which about 6,000 (1.7%) were called active. All entries are inconclusive by the source's own rule. Clear calls are listed elsewhere. Calls come from the whole dose curve; as a rule, active = well fitted cell-killing curve with a large enough effect; inconclusive = small, poorly fitted or top-dose-only effect, or effect the other way; inactive = flat fitted curve, though single readings scatter.
# Assay: qHTS for induction of synthetic lethality in tumor cells producing 2HG: qHTS for the HT-1080-NT fibrosarcoma cell line;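 note: NT is the 2HG producing partner of a matched IDH1 knockdown line; nearly all actives have a fitted effect of over 55% in size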
# Details: HT-1080-NT fibrosarcoma viability, CellTiter-Glo ATP luminescence, 48 h
# Potency is the fitted concentration of half-maximal effect.
row,Compound,Potency
1,CCN(CC)C(=S)SC(NC=O)C(Cl)(Cl)Cl (centres undefined),inconclusive: 29.1 µM
2,O=[N+]([O-])c1cc([N+](=O)[O-])c(-c2ccn[nH]2)s1,inconclusive: 29.1 µM
3,Cc1ccc2c(c1)C1CN(C)CCC1N2C(=O)CCCN1C(=O)c2cccc3cccc(c23)C1=O (centres undefined),inconclusive: 29.1 µM
4,O=[N+]([O-])c1ccc(-c2cc([N+](=O)[O-])c(O)c([N+](=O)[O-])c2)cc1,inconclusive: 25.9 µM
5,O=C(OC1CN2CCC1CC2)C12CC3CC(CC(C3)C1)C2 (centres undefined),inconclusive: 18.4 µM
6,CSc1ccc(Nc2c([N+](=O)[O-])cc([N+](=O)[O-])cc2[N+](=O)[O-])cc1,inconclusive: 29.1 µM
7,CCOC(=O)Nc1ccc([As](=O)(O)O)c(O)c1,inconclusive: 25.9 µM
8,Cc1ccc2c(c1)C1CN(C)CCC1N2C(=O)c1cccc(S(=O)(=O)N2CC(C)CC(C)C2)c1 (centres undefined),inconclusive: 25.9 µM
9,CCC1=CC2Cc3nc4ccc(Cl)cc4c(N)c3C(C1)C2 (centres undefined),inconclusive: 18.4 µM
10,Cc1ccc2c(c1)C1CN(C)CCC1N2C(=O)c1cn(-c2ccccc2)nc1-c1ccccc1 (centres undefined),inconclusive: 18.4 µM
11,CCOc1ccc(S(=O)(=O)N(C)c2ccc(OCC(=O)N3c4ccc(C)cc4C4CN(C)CCC43)cc2)cc1 (centres undefined),inconclusive: 13 µM
12,COc1ccc(-c2nn(-c3ccccc3)cc2C(=O)N2c3ccc(C)cc3C3CN(C)CCC32)cc1 (centres undefined),inconclusive: 9.2 µM
13,O=[N+]([O-])c1ccc(O)c(/C=N/Nc2ccc([N+](=O)[O-])cc2[N+](=O)[O-])c1,inconclusive: 18.4 µM
14,O=P(Nc1nc2ccccc2s1)(c1ccccc1)c1ccccc1,inconclusive: 23.1 µM
15,O=P(Nc1ccccn1)(c1ccc(Br)cc1)c1ccc(Br)cc1,inconclusive: 32.6 µM
16,O=[N+]([O-])c1cc([N+](=O)[O-])c(CCNc2ccccc2)c([N+](=O)[O-])c1,inconclusive: 9.2 µM
17,O=[N+]([O-])C1C(O)C(O)C([N+](=O)[O-])C(O)C1O (centres undefined),inconclusive: 25.9 µM
18,CN(C(=O)Cc1ccc(Cl)c(Cl)c1)[C@H]1CCCC[C@@H]1N1CCCC1,inconclusive: 29.1 µM
19,O=P(Nc1nc2ccc(Cl)cc2s1)(c1ccccc1)c1ccccc1,inconclusive: 18.4 µM
